Test results as given in US8470837B2, “MAPK/ERK kinase inhibitors” (Takeda Pharmaceutical Company Limted, priority 2006, dated 2013).

The chains behind the UniProt entries cited, without tags or fusion partners. A line that says so, or that is headed by a name, gives the form on record, which may keep a tag or linker.
UniProt Q02750, with tags, fused parts or gaps DEL30-49/S218E/S222D: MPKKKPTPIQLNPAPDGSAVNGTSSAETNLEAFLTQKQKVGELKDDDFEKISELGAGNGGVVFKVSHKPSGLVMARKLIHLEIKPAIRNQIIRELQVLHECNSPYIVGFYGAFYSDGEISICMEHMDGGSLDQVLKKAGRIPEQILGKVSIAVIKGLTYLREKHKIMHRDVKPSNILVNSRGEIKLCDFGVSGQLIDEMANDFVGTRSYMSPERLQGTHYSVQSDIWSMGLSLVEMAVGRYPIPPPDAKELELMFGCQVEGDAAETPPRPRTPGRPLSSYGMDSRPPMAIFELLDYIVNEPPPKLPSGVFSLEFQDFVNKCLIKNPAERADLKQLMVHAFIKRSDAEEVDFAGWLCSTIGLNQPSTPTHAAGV

Molecular target: MEK1 (Homo sapiens, UniProt Q02750, DEL30-49/S218E/S222D)
Assay: MEK1 inhibition, fluorescence polarization assay with IMAP beads (ERK1 / FI-Erktide coupled)

Row | pIC50 | Structure (SMILES)
1 | ≤ 7.80 | Cn1cnc2c(c(Nc3ccc(I)cc3F)cc(=O)n2C)c1=O [Example 1, 5-(2-fluoro-4-iodophenylamino)-3,8-dimethylpyrido[2,3-d]pyrimidine-4,7(3H,8H)-dione]
2 | ≤ 7.80 | Cn1c(=O)c(F)c(Nc2ccc(Br)cc2F)c2c(=O)n(C[C@@H](O)CO)cnc21 [Example 20, (R)-5-(4-Bromo-2-fluorophenylamino)-3-(2,3-dihydroxypropyl)-6-fluoro-8-methylpyrido[2,3-d]pyrimidine-4,7(3H,8H)-dione]

pIC50: −log10 of the molar value.
